Experimental data taken from publication PMC10009755, “Discovery and Characterization of BAY-805, a Potent and Selective Inhibitor of Ubiquitin-Specific Protease USP21” (Journal of Medicinal Chemistry, 2023).

Amino acid sequences for entries named in this document (tags omitted). A change or cut given only in a name is not applied to a line headed by its entry. Residues count along the entry.
UniProt O75914, whole entry: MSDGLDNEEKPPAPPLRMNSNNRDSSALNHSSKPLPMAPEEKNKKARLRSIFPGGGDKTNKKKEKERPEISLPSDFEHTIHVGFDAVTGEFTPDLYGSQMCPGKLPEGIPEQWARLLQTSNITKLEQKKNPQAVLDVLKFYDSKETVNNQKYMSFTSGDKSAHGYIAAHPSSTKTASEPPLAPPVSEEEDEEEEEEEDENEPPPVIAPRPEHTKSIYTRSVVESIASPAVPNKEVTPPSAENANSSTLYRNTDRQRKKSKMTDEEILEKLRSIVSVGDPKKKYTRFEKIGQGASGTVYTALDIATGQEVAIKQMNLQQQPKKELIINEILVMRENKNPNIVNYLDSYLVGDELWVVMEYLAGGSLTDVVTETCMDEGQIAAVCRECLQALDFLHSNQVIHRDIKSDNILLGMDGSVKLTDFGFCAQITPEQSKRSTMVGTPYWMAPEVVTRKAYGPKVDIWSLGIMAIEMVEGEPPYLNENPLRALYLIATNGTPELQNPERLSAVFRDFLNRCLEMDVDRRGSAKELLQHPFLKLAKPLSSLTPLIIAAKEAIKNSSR
UniProt Q96RU2: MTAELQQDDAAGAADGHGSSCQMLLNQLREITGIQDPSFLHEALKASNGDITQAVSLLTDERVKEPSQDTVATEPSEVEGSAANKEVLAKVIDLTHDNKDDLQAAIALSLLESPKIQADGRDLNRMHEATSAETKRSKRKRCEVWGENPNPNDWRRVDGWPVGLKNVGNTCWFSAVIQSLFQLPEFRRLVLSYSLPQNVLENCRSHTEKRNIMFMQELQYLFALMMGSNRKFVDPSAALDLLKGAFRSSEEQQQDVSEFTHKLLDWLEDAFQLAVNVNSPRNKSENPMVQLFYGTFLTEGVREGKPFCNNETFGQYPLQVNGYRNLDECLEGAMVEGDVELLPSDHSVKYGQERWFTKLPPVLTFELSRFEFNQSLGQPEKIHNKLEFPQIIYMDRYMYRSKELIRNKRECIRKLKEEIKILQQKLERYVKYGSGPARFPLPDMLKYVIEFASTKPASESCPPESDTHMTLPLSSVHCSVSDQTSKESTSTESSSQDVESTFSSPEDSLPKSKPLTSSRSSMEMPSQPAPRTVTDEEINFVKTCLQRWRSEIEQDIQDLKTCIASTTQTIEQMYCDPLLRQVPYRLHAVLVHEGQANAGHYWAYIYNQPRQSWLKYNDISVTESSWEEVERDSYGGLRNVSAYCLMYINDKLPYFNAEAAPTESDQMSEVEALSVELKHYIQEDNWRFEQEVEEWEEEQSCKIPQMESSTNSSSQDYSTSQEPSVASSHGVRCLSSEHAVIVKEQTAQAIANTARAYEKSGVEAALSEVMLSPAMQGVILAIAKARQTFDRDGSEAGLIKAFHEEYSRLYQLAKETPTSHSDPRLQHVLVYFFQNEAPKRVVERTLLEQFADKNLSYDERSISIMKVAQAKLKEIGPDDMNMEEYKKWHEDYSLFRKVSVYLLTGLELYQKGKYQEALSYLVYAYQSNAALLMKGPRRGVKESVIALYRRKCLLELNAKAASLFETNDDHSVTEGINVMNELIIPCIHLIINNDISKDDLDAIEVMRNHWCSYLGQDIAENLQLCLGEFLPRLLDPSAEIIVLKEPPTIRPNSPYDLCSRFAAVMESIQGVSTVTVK
UniProt Q9UBE8: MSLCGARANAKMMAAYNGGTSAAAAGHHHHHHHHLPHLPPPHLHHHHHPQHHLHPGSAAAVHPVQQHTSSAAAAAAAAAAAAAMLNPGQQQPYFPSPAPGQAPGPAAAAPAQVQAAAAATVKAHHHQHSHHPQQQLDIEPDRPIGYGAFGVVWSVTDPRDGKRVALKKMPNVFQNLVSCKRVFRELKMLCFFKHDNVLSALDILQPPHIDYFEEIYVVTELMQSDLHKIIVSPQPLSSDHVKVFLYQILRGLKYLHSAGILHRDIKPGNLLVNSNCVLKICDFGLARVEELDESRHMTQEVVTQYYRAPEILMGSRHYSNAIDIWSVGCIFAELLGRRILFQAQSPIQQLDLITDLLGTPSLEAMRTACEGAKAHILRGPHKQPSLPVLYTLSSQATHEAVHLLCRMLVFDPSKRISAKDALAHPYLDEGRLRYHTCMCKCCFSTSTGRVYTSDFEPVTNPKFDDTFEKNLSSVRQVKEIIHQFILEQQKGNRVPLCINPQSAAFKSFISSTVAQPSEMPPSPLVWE
UniProt Q08345, 19-913: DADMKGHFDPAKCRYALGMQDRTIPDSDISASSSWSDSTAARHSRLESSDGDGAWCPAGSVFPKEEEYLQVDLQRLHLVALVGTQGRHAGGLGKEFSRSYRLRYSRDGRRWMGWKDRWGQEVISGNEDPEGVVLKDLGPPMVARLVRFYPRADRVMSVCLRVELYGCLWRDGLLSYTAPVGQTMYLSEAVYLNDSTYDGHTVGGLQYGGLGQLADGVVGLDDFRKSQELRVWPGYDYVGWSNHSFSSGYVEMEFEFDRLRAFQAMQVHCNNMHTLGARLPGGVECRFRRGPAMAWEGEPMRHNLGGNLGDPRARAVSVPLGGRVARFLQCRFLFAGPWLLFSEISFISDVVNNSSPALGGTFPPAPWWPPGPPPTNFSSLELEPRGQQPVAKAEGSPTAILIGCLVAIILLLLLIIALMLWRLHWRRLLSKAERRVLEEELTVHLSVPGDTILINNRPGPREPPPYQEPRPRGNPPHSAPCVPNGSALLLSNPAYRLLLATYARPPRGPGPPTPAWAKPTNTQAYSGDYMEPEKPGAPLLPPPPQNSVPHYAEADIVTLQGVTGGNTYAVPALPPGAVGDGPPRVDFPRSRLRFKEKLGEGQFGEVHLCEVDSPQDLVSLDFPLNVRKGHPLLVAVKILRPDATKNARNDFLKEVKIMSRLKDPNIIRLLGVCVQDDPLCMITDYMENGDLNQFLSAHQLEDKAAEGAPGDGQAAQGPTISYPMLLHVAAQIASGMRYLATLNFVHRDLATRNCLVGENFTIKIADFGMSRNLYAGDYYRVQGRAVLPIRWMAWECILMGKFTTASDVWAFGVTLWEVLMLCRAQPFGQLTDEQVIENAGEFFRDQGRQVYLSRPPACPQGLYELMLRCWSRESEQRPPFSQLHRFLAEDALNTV
UniProt Q8N568: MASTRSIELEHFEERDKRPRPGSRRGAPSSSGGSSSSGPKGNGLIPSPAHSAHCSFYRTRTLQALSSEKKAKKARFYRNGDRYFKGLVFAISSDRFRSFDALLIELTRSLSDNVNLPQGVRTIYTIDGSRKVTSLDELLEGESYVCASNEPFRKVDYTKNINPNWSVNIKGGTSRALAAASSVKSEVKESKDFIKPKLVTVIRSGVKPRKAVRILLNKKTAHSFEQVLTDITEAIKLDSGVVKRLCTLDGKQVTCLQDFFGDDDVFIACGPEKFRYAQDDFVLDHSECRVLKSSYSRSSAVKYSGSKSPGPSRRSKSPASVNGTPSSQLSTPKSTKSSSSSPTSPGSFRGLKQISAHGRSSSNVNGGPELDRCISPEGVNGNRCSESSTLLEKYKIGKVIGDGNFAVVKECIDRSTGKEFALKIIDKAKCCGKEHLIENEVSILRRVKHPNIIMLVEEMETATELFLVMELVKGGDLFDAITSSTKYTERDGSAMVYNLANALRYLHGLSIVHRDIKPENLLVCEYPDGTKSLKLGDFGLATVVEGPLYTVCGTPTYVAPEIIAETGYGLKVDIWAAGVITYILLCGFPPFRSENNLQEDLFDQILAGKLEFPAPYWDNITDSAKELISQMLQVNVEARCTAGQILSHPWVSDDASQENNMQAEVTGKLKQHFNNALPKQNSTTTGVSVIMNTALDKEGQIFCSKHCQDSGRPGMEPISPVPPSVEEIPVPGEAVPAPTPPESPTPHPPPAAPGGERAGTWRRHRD
UniProt Q9NQU5: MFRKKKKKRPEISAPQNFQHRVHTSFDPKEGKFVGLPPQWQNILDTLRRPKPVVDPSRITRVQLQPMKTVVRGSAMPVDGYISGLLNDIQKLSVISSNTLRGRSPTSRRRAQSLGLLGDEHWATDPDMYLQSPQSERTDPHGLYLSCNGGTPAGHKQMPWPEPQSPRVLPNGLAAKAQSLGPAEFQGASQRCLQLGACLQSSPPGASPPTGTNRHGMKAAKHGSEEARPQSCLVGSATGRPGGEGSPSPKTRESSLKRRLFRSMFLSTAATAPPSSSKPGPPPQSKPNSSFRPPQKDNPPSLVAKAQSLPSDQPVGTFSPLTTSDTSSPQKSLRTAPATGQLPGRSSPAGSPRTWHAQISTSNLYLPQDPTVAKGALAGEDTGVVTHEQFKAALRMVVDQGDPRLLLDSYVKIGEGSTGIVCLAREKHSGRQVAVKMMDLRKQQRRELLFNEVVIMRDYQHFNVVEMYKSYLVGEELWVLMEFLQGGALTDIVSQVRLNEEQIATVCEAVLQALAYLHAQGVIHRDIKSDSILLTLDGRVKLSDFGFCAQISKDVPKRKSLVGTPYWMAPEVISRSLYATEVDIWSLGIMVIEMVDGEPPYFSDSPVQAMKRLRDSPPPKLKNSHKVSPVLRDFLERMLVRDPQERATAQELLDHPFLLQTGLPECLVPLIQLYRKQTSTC
UniProt Q16816: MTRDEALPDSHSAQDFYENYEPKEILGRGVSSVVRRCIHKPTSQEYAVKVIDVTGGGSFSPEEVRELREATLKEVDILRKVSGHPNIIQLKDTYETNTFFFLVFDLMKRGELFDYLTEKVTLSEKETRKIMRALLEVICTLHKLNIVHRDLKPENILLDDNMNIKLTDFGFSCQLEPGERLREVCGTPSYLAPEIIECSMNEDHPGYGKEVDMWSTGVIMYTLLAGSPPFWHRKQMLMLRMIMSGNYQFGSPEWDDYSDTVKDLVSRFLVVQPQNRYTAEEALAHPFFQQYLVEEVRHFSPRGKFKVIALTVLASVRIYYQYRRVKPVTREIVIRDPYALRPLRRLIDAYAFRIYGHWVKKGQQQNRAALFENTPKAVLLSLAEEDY
UniProt P43403: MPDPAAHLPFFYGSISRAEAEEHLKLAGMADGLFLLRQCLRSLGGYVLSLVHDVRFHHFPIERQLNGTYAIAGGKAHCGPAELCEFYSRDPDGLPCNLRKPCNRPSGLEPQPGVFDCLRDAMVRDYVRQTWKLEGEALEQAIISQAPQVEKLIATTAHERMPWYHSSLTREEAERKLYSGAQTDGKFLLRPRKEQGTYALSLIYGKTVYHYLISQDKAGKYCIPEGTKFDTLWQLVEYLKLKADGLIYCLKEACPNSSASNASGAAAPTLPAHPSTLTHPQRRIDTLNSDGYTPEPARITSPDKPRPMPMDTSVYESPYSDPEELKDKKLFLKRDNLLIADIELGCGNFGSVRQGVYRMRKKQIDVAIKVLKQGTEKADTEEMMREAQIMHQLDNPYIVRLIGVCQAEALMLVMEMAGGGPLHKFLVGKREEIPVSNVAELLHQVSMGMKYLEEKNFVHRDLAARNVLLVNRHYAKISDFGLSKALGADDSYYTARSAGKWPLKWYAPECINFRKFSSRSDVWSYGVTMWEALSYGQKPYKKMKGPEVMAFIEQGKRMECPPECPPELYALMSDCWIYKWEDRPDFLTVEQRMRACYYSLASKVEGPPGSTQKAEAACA
UniProt Q8N5S9: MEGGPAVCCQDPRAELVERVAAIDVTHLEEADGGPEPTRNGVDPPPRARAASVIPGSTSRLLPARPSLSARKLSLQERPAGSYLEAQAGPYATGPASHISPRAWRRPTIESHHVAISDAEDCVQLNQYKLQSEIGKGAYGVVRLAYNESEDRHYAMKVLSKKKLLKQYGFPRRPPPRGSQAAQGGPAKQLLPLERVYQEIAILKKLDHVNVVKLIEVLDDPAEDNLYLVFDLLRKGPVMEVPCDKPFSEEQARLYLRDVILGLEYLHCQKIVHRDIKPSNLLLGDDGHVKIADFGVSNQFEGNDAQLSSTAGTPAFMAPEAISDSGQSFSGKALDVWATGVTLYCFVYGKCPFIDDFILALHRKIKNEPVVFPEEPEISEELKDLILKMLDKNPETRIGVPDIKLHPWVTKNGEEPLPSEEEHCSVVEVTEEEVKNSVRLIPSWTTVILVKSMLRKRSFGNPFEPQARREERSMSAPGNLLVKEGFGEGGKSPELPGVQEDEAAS
UniProt Q9H3M9: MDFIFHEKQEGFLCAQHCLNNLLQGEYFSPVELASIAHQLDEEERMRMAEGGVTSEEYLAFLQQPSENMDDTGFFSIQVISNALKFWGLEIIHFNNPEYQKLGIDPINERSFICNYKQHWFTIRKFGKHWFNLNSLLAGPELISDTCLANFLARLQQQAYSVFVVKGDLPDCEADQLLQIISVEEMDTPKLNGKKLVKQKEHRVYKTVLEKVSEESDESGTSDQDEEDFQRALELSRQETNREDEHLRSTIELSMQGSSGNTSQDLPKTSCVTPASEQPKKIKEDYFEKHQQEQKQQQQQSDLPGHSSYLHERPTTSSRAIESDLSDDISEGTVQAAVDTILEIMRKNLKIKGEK

Assays:
Test in all cases: biochemical
PAK3(h) = PAK3(h) (Homo sapiens, UniProt O75914)
MELK(h) = MELK(h) (Homo sapiens, UniProt Q14680)
Ron(h) = Ron(h) (Homo sapiens, UniProt Q04912)
USP28 = USP28 (Homo sapiens, UniProt Q96RU2); settings: read-out: Activity (% Control)
Aurora-B(h) = Aurora-B(h) (Homo sapiens, UniProt Q96GD4)
MST3(h) = MST3(h) (Homo sapiens, UniProt Q9Y6E0)
NLK (h) = NLK (h) (Homo sapiens, UniProt Q9UBE8)
SAPK3(h) = SAPK3(h) (Homo sapiens, UniProt P53778)
CDK3/cyclinE(h) = CDK3/cyclinE(h) (Homo sapiens, UniProt Q00526)
c-RAF(h) = c-RAF(h) (Homo sapiens, UniProt P04049)
USP5 = USP5 (Homo sapiens, UniProt P45974); settings: read-out: Activity (% Control)
CLK2(h) = CLK2(h) (Homo sapiens, UniProt P49760)
CK1epsilon(h) = CK1epsilon(h) (Homo sapiens, UniProt P49674)
Aldose Reductase = Aldose Reductase (Homo sapiens, UniProt P15121); settings: read-out: % Inh.
LKB1(h) = LKB1(h) (Homo sapiens, UniProt Q15831)
DDR1(h) = DDR1(h) (Homo sapiens, UniProt Q08345)
Ret(h) = Ret(h) (Homo sapiens, UniProt P07949)
Estrogen Erα = Estrogen Erα (Homo sapiens, UniProt P03372); settings: read-out: % Inh.
Lck(h) activated = Lck(h) activated (Homo sapiens, UniProt P06239)
DCAMKL2(h) = DCAMKL2(h) (Homo sapiens, UniProt Q8N568)
TTBK1(h) = TTBK1(h) (Homo sapiens, UniProt Q5TCY1)
PAK6(h) = PAK6(h) (Homo sapiens, UniProt Q9NQU5)
HIPK4(h) = HIPK4(h) (Homo sapiens, UniProt Q8NE63)
TNIK(h) = TNIK(h) (Homo sapiens, UniProt Q9UKE5)
Endothelin ETA = Endothelin ETA (Homo sapiens, UniProt P25101); settings: read-out: % Inh.
CK1gamma2(h) = CK1gamma2(h) (Homo sapiens, UniProt P78368)
PhKgamma1(h) = PhKgamma1(h) (Homo sapiens, UniProt Q16816)
PRKG2(h) = PRKG2(h) (Homo sapiens, UniProt Q13237)
ZAP-70(h) = ZAP-70(h) (Homo sapiens, UniProt P43403)
Axl(h) = Axl(h) (Homo sapiens, UniProt P30530)
IRAK1(h) = IRAK1(h) (Homo sapiens, UniProt P51617)
TAO3(h) = TAO3(h) (Homo sapiens, UniProt Q9H2K8)
DYRK1B(h) = DYRK1B(h) (Homo sapiens, UniProt Q9Y463)
STK16(h) = STK16(h) (Homo sapiens, UniProt O75716)
VRK2(h) = VRK2(h) (Homo sapiens, UniProt Q86Y07)
MAPK1(h) = MAPK1(h) (Homo sapiens, UniProt P27361)
CDK4/cyclinD3(h) = CDK4/cyclinD3(h) (Homo sapiens, UniProt P11802)
CaMKK1(h) = CaMKK1(h) (Homo sapiens, UniProt Q8N5S9)
PDHK4(h) = PDHK4(h) (Homo sapiens, UniProt Q16654)
PTK5(h) = PTK5(h) (Homo sapiens, UniProt P42685)
OTUD3 = OTUD3 (Homo sapiens, UniProt Q5T2D3); settings: read-out: Activity (% Control)
Ataxin3L = Ataxin3L (Homo sapiens, UniProt Q9H3M9); settings: read-out: Activity (% Control)

CC(C)C[C@H](NC(=O)C1(C(F)(F)F)CCCCC1)C(=O)Nc1nnc(Cc2ccc(C#N)cc2)s1 [Compound 22, CC(C)C[C@H](NC(=O)C1(CCCCC1)C(F)(F)F)C(=O)Nc2nnc(Cc3ccc(cc3)C#N)s2]
inhibition at 10 µM (PAK3(h)): -0.66% | inhibition at 10 µM (MELK(h)): 4.43% | inhibition at 10 µM (Ron(h)): -5.2% | remaining activity at 1 µM (USP28): 99% | remaining activity at 10 µM (USP28): 106% | inhibition at 10 µM (Aurora-B(h)): -17.2% | inhibition at 10 µM (MST3(h)): 4.23% | inhibition at 10 µM (NLK (h)): -1.46% | inhibition at 10 µM (SAPK3(h)): -2.05% | inhibition at 10 µM (CDK3/cyclinE(h)): -14.7% | inhibition at 10 µM (c-RAF(h)): -10.5% | remaining activity at 10 µM (USP5): 94% | remaining activity at 50 µM (USP5): 78% | inhibition at 10 µM (CLK2(h)): -11.5% | inhibition at 10 µM (CK1epsilon(h)): 3.02% | inhibition at 10 µM (Aldose Reductase): 2% | inhibition at 10 µM (LKB1(h)): 3.08% | inhibition at 10 µM (DDR1(h)): -7.03% | inhibition at 10 µM (Ret(h)): 1.67% | inhibition at 10 µM (Estrogen Erα): -15% | inhibition at 10 µM (Lck(h) activated): 3.42% | inhibition at 10 µM (DCAMKL2(h)): -15.1% | inhibition at 10 µM (TTBK1(h)): -12.3% | inhibition at 10 µM (PAK6(h)): 3.73% | inhibition at 10 µM (HIPK4(h)): 6.43% | inhibition at 10 µM (TNIK(h)): 8.51% | inhibition at 10 µM (Endothelin ETA): 7% | inhibition at 10 µM (CK1gamma2(h)): 5.69% | inhibition at 10 µM (PhKgamma1(h)): 6.48% | inhibition at 10 µM (PRKG2(h)): 3.67% | inhibition at 10 µM (ZAP-70(h)): -15.3% | inhibition at 10 µM (Axl(h)): 5.28% | inhibition at 10 µM (IRAK1(h)): -2.41% | inhibition at 10 µM (TAO3(h)): 3.93% | inhibition at 10 µM (DYRK1B(h)): -3.27% | inhibition at 10 µM (STK16(h)): -9.98% | inhibition at 10 µM (VRK2(h)): -0.65% | inhibition at 10 µM (MAPK1(h)): -0.7% | inhibition at 10 µM (CDK4/cyclinD3(h)): 0.72% | inhibition at 10 µM (CaMKK1(h)): -7.24% | inhibition at 10 µM (PDHK4(h)): -5.39% | inhibition at 10 µM (PTK5(h)): -6.75% | remaining activity at 1 µM (OTUD3): 102% | remaining activity at 10 µM (OTUD3): 100% | remaining activity at 1 µM (Ataxin3L): 91% | remaining activity at 10 µM (Ataxin3L): 106%

CC(C)C[C@@H](NC(=O)C1(C(F)(F)F)CCCCC1)C(=O)Nc1nnc(Cc2ccc(C#N)cc2)s1 [Compound 21, N-[(1R)-1-[[5-[(4-Cyanophenyl)methyl]-1,3,4-thiadiazol-2-yl]carbamoyl]-3-methyl-butyl]-1-(trifluoromethyl)cyclohexanecarboxamide]
inhibition at 10 µM (PAK3(h)): -2.47% | inhibition at 10 µM (MELK(h)): 8.28% | inhibition at 10 µM (Ron(h)): 2.31% | remaining activity at 1 µM (USP28): 123% | remaining activity at 10 µM (USP28): 102% | inhibition at 10 µM (Aurora-B(h)): -14.5% | inhibition at 10 µM (MST3(h)): 5.19% | inhibition at 10 µM (NLK (h)): 7.16% | inhibition at 10 µM (SAPK3(h)): 4.27% | inhibition at 10 µM (CDK3/cyclinE(h)): -8.85% | inhibition at 10 µM (c-RAF(h)): -9.81% | remaining activity at 10 µM (USP5): 97% | remaining activity at 50 µM (USP5): 80% | inhibition at 10 µM (CLK2(h)): -2.03% | inhibition at 10 µM (CK1epsilon(h)): 9.53% | inhibition at 10 µM (Aldose Reductase): 0% | inhibition at 10 µM (LKB1(h)): 0.83% | inhibition at 10 µM (DDR1(h)): -6.82% | inhibition at 10 µM (Ret(h)): -7.7% | inhibition at 10 µM (Estrogen Erα): -6% | inhibition at 10 µM (Lck(h) activated): 0.11% | inhibition at 10 µM (DCAMKL2(h)): -0.9% | inhibition at 10 µM (TTBK1(h)): -12.8% | inhibition at 10 µM (PAK6(h)): 6.95% | inhibition at 10 µM (HIPK4(h)): 7.73% | inhibition at 10 µM (TNIK(h)): 18.4% | inhibition at 10 µM (Endothelin ETA): -7% | inhibition at 10 µM (CK1gamma2(h)): 9.63% | inhibition at 10 µM (PhKgamma1(h)): 10.5% | inhibition at 10 µM (PRKG2(h)): -1.61% | inhibition at 10 µM (ZAP-70(h)): 6.36% | inhibition at 10 µM (Axl(h)): -0.59% | inhibition at 10 µM (IRAK1(h)): -2.62% | inhibition at 10 µM (TAO3(h)): 7.12% | inhibition at 10 µM (DYRK1B(h)): 2.8% | inhibition at 10 µM (STK16(h)): -9.06% | inhibition at 10 µM (VRK2(h)): 6.47% | inhibition at 10 µM (MAPK1(h)): 6% | inhibition at 10 µM (CDK4/cyclinD3(h)): 3.86% | inhibition at 10 µM (CaMKK1(h)): -4.16% | inhibition at 10 µM (PDHK4(h)): 6.24% | inhibition at 10 µM (PTK5(h)): -5.66% | remaining activity at 1 µM (OTUD3): 102% | remaining activity at 10 µM (OTUD3): 101% | remaining activity at 1 µM (Ataxin3L): 109% | remaining activity at 10 µM (Ataxin3L): 111%
